Data on one substance can be found in patent US20100098696A1.

The experiment addresses FGFR-3 K650E mutant on OPM-2 cells (human) (UniProt P22607). The experiment in a line: cell-based or functional assay.

In turn, “FGF-9 (from UniProt P31371 1-208) (ligand)” returned a phosphor-FGFR-3 western blot signal, OPM-2 cells, 0.2 nM FGF-9 of 3 fold and a phosphor-MAPK western blot signal, OPM-2 cells, 0.2 nM FGF-9 of over 2 fold.
